Among the data in PubChem BioAssay AID1259423 (Fisher Drug Discovery Resource Center, 2018) are activation values, retold here.

“And” between values parts separate entries of the source, which are not always exact repeats. Identical values can stand only once. The entries are a selection whose mix differs from that of the whole data set. The source made the active and inactive calls. No stated cut-off is given here; in the data, active means activation above about 40%; inactive means the rest, inconclusive results apart.

The subject of the experiment is Aedes aegypti neuropeptide Y-like receptor 7 (NPYLR7). Description: agonists of mosquito NPYLR7 receptor, primary screen, cell-based, Aedes aegypti, calcium fluorescence, mosquito biting behavior (AID 1259423).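 Further: 0% = vehicle and 100% = reference agonist at the receptor.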 To be noted: HEK293T NPYLR7/Galpha15, GCaMP6s calcium fluorescence; at 10 µM; stronger effect = higher value.
As to `COc1cccc(N(C(=O)c2cccc(Cl)c2)C2CCNCC2)c1`, the activation is inactive: 14.7%.

With `O=C(NCC1(N2CCCCC2)CCCCC1)c1cn2ccccc2n1`, the activation is inactive: 7.06%.

With `CC(C)(C)OC(=O)N1CCC(Nc2ccccc2)(C(=O)N2CCC2)CC1`, the activation is inactive: 0.516%.

For the molecule `CN(C)C1(CNC(=O)c2ccccn2)CCCCC1`, the activation was inactive: 12.5%.

Take `O=C(NCC1(N2CCOCC2)CCCCC1)c1ccc(Br)o1`: the activation is inactive: 5.35%.

Take `Cc1ccc(C(C)CCN(CCCl)CCCl)cc1` (stereo unspecified): the activation is inactive: -2.8%.

Regarding `O=C(NCC1(N2CCCCC2)CCCCC1)c1cccs1`, the activation was inactive: -1.24%.

`Cc1nc([N+](=O)[O-])cn1CCC(=O)N[C@@H]1CCCC[C@H]1N1CCOCC1`: the activation is inactive: 12.9%.

Regarding `c1ccc(NC2CCN(CCc3ccncc3)CC2)cc1`, the activation is inactive: 12.6%.

`CCOC(OCC)P(=S)(OCC)OCC`: the activation is inactive: -8.83%.

With `O=C(N[C@@H]1CCCC[C@H]1N1CCOCC1)c1cccc(Br)c1`, the activation was inactive: -11.3%.

`Cc1cc(=O)[nH]c(C(C)N2CCC(Nc3ccccc3)CC2)n1` (stereo unspecified): the activation was inactive: 7.39% and inactive: 6.37%.

Consider `O=C(NCC1(N2CCOCC2)CCCCC1)c1ccc2c3c(cccc13)CC2`, for which the activation was inactive: -0.0673%.

For `COCC(=O)N(c1cccc(C)c1)C1CCNCC1`, the activation is inactive: 13.5%.

Turning to `O=C(NCC1(N2CCCCC2)CCCCC1)c1cc2c(s1)CCC2`, the activation was inactive: 20.7%.

As for `COc1cc(NC2CCNCC2)cc(OC)c1`, the activation is inactive: -2.6%.

For `O=C(NCC1(N2CCCCC2)CCCCC1)c1ccc2c(c1)OCO2`, the activation is inactive: 2.05%.

Regarding `O=c1[nH]c2ccccc2n1C1CCN(Cc2ccccn2)CC1`, the activation is inactive: -5.3%.

As for `Cc1cccc(N(C(=O)c2ccco2)C2CCN(C(=O)OC(C)(C)C)CC2)c1`, the activation was inactive: 1.62%.

Turning to `N#Cc1ccc(C(=O)CBr)cc1`, the activation is inactive: 13%.

As to `COc1cccc(NC2CCN(Cc3ccncc3)CC2)c1`, the activation is inactive: 3.69%.

For the molecule `O=C(NCC1(N2CCOCC2)CCCCC1)c1ccc(OCC(F)(F)F)nc1`, the activation is inactive: -13.7%.

As to `O=c1[nH]c2ccccc2n1C1CCN(Cc2cccc(F)c2F)CC1`, the activation was inactive: 0.256%.

Turning to `COc1ccc(N(C(=O)CC(C)C)C2CCNCC2)cc1`, the activation was inactive: 12.3%.

For the molecule `CCc1ccc(N(C(=O)c2cccc(C)c2)C2CCNCC2)cc1`, the activation was inactive: 17%.

In the case of `Cc1ccc(N(C(=O)c2ccco2)C2CCNCC2)cc1F`, the activation was inactive: 18%.
